Molecular target: Epithelial Cell Kinase (ECK) (Homo sapiens, UniProt P29317)
Assay: biochemical
Details: Eck IC50, pH 7.2; nonradioactive format

Sequences of proteins named here, by UniProt entry; tags and fusion partners are left off. Residues count along the entry.
UniProt P29317, 24-976, species assumed: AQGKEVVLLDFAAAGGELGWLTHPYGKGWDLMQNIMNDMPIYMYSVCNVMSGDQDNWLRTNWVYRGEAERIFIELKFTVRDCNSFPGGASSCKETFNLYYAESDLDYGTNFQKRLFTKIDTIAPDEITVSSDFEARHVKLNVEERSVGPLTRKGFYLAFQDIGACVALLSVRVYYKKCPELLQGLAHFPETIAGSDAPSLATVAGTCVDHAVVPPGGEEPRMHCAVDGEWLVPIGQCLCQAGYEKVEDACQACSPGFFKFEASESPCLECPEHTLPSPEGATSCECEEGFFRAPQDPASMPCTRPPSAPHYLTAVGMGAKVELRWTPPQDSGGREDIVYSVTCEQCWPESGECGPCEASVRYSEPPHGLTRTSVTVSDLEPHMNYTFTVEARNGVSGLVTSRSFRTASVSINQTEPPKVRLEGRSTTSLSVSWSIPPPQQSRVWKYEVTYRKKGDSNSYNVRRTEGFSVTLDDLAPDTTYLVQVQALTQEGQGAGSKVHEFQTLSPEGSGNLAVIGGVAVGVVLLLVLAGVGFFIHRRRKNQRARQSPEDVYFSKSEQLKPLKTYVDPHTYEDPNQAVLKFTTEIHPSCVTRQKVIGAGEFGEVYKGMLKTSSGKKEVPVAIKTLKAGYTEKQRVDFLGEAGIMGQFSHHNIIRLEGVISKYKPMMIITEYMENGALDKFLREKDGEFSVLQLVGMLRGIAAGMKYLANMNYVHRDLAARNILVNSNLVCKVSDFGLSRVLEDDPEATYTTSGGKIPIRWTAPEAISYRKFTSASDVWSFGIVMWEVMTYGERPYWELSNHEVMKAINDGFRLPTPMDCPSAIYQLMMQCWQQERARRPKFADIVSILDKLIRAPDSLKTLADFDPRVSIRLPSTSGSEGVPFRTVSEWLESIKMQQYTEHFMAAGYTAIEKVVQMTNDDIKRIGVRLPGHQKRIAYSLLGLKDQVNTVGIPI

N#Cc1cnc2ccc([N+](=O)[O-])cc2c1Nc1ccc(F)c(F)c1 [Example 156, 4-[(3,4-Difluorophenyl)amino]-6-nitro-3-quinolinecarbonitrile]
IC50: > 30.6 µM

CC#CC(=O)Nc1ccc2ncc(C#N)c(Nc3ccc(Sc4ccccc4)c(Cl)c3)c2c1 [Example 157]
IC50: > 42.6 µM

N#Cc1cnc2ccc(N)cc2c1Nc1ccc(Sc2ccccc2)c(Cl)c1 [Example 158, 6-Amino-4-[(3-chloro-4-thiophenoxyphenyl)amino]-3-quinolinecarbonitrile]
IC50: > 49.6 µM

N#Cc1cnc2ccc([N+](=O)[O-])cc2c1Nc1ccc(Sc2ccccc2)c(Cl)c1 [Example 159, 4-[(3-Chloro-4-thiophenoxyphenyl)amino]-6-nitro-3-quinolinecarbonitrile]
IC50: > 23.1 µM

C=CC(=O)Nc1ccc2ncc(C#N)c(Nc3cccc(C#N)c3)c2c1 [Example 160, N-[3-Cyano-4-[(3-cyanophenyl)amino]-6-quinolinyl}-2-propenamide]
IC50: < 0.0589 µM

N#Cc1cccc(Nc2c(C#N)cnc3ccc(NC(=O)C#CCN4CCCCC4)cc23)c1 [Example 161, N-{3-Cyano-4-[(3-cyanophenyl)amino]-6-quinolinyl}-4-piperidino-2-butynamide]
IC50: > 46 µM

N#Cc1cccc(Nc2c(C#N)cnc3ccc(N)cc23)c1 [Example 162, 6-Amino-4-[(3-cyanophenyl)amino]-3-quinolinecarbonitrile]
IC50: > 35.1 µM

N#Cc1cccc(Nc2c(C#N)cnc3ccc([N+](=O)[O-])cc23)c1 [Example 163, 4-[(3-Cyanophenyl)amino]-6-nitro-3-quinolinecarbonitrile]
IC50: > 31.7 µM

C#Cc1cccc(Nc2c(C#N)cnc3ccc(NC(=O)C#CC)cc23)c1 [Example 164, N-{3-Cyano-4-[(3-ethynylphenyl)amino]-6-quinolinyl}-2-butynamide]
IC50: > 57.1 µM

C#Cc1cccc(Nc2c(C#N)cnc3ccc(NC(=O)C=C)cc23)c1 [Example 165, N-{3-Cyano-4-[(3-ethynyphenyl)amino]-6-quinolinyl)-2-propenamide]
IC50: > 59.1 µM

C#Cc1cccc(Nc2c(C#N)cnc3ccc(NC(=O)C#CCN4CCCCC4)cc23)c1 [Example 166, N-{3-cyano-4-[(3-ethynylphenyl)amino]-6-quinolinyl)-4-piperidino-2-butynamide]
IC50: > 46.1 µM

C#Cc1cccc(Nc2c(C#N)cnc3ccc(N)cc23)c1 [Example 167, 6-Amino-4-[(3-ethynylphenyl)amino]-3-quinolinecarbonitrile]
IC50: > 70.3 µM

C#Cc1cccc(Nc2c(C#N)cnc3ccc([N+](=O)[O-])cc23)c1 [Example 168, 4-[(3-Ethynylphenyl)amino]-6-nitro-3-quinolinecarbonitrile]
IC50: > 31.8 µM

CCCN(CC#CC(=O)Nc1ccc2ncc(C#N)c(Nc3cccc(Br)c3)c2c1)CCC [Example 170]
IC50: 11.9 µM

C=C(CN1CCOCC1)C(=O)Nc1ccc2ncc(C#N)c(Nc3cccc(Br)c3)c2c1 [Example 171, N-{4-[(3-Bromophenyl)amino]-3-cyano-6-quinolinyl}-2-morpholin-4-ylmethyl-2-propenamide]
IC50: > 40.6 µM

COc1cc2ncc(C#N)c(Nc3ccc(F)c(Br)c3)c2cc1NC(=O)C=CCN1CCOCC1 [Example 175, N-{4-[(3-Bromo-4-fluorophenyl)amino]-3-cyano-7-methoxy-6-quinolinyl}-4-morpholino-2-butenamide]
IC50: > 37 µM

C=C(CC(=O)Nc1ccc2ncc(C#N)c(Nc3cccc(Br)c3)c2c1)C(=O)O [Example 186, 4-[[4-[(3-Bromophenyl)amino]-3-cyano-6-quinolinyl]-amino]-2-methylene-4-oxo-butanoic acid]
IC50: > 22.2 µM

CCN1CCN(CC#CC(=O)Nc2ccc3ncc(C#N)c(Nc4cccc(Br)c4)c3c2)CC1 [Example 188, N-[4-[(3-Bromophenyl)amino]-3-cyano-6-quinolinyl]-4-(N-ethylpiperazino)-2-butynamide]
IC50: > 38.7 µM

CCN(CC)CC#CC(=O)Nc1ccc2ncc(C#N)c(Nc3ccc(F)c(Cl)c3)c2c1 [Example 189, N-[4-[(3-Chloro-4-fluorophenyl)amino]-3-cyano-6-quinolinyl]-4-diethylamino-2-butynamide]
IC50: > 44.5 µM

COCC#CC(=O)Nc1ccc2ncc(C#N)c(Nc3ccc(F)c(Cl)c3)c2c1 [Example 194, N-[4-[-(3-Chloro-4-fluorophenyl)amino]-3-cyano-6-quinolinyl]-4-methoxy-2-butynamide]
IC50: > 48.9 µM

COc1cc2ncc(C#N)c(Nc3ccc(F)c(Cl)c3)c2cc1N [Example 202, 6-Amino-4-(3-chloro-4-fluoro-phenylamino)-7-methoxy-quinoline-3-carbonitrile]
IC50: > 58.3 µM

CCN(CC)CC=CC(=O)Nc1cc2c(Nc3ccc(F)c(Br)c3)c(C#N)cnc2cc1OC [Example 209, 4-Diethylamino-but-2-enoic acid [4-(3-bromo-4-fluorophenylamino)-3-cyano-7-methoxy-quinolin-6-yl]-amide]
IC50: > 38 µM

COc1cc2ncc(C#N)c(Nc3cccc(Br)c3)c2cc1NC(=O)C#CCN(C)C [Example 227, 4-Dimethylamino-but-2-ynoic acid [4-(3-bromo-phenylamino)-3-cyano-7-methoxy-quinol-6-yl]-amide]
IC50: > 41.8 µM

COc1cc2ncc(C#N)c(Nc3ccc(Cl)cc3F)c2cc1OC [Example 228, 4-(4-Chloro-2-fluoro-phenylamino)-6,7-dimethoxy-quinoline-3-carbonitrile]
IC50: > 55.9 µM

COc1cc2c(Nc3cccc(N(C)C)c3)c(C#N)cnc2c(OC)c1OC [Example 232, 4-(3-Dimethylamino-phenylamino)-6.7.8-trimethoxy-quinoline-3-carbonitrile]
IC50: > 52.8 µM

COc1ccc(OC)c2c(Nc3ccc(C)c(O)c3)c(C#N)cnc12 [Example 239, 4-(3-Hydroxy-4-methyl-phenylamino)-5,8-dimethoxy-quinoline-3-carbonitrile]
IC50: > 29.8 µM

COc1ccc(OC)c2c(Nc3cccc(Br)c3)c(C#N)cnc12 [Example 240, 4-(3-Bromo-phenylamino)-5.8-dimethoxy-quinoline-3-carbonitrile]
IC50: > 26 µM

COc1ccc(OC)c2c(Nc3cccc(N(C)C)c3)c(C#N)cnc12 [Example 242, 4-(3-Dimethylamino-phenylamino)-5,8-dimethoxy-quinoline-3-carbonitrile]
IC50: > 28.7 µM

COc1ccc(OC)c2c(Nc3cc(O)c(Cl)cc3F)c(C#N)cnc12 [Example 243, 4-(4-Chloro-2-fluoro-5-hydroxy-phenylamino)-5,8-dimethoxy-quinoline-3-carbonitrile]
IC50: > 26.8 µM

COc1cc2ncc(C#N)c(Nc3ccc(O)c(Cl)c3)c2cc1OC [Example 249, 4-(3-Chloro-4-hydroxy-phenylamino)-6,7-dimethoxy-quinoline-3-carbonitrile]
IC50: > 28.1 µM

CCOc1cc2ncc(C#N)c(Nc3ccc(Sc4ccccc4)c(Cl)c3)c2cc1OCC [Example 254, 4-[3-Chloro-4-(phenylthio)phenylamino]-6,7-diethoxy-3-quinolinecarbonitrile]
IC50: > 21 µM

COc1cc2ncc(C#N)c(Nc3ccc(Sc4ccccc4)c(Cl)c3)c2cc1OC [Example 255, 4-[3-Chloro-4-(phenylthio)phenylamino]-6,7-dimethoxy-3-quinolinecarbonitrile]
IC50: > 44.6 µM

CCOc1cc2ncc(C#N)c(Nc3ccc(F)c(Cl)c3)c2cc1OCC [Example 256, 4-(3-Chloro-4-fluorophenylamino)-6,7-diethoxy-3-quinolinecarbonitrile]
IC50: > 51.8 µM

CCOc1cc2ncc(C#N)c(Nc3cccc(C(C)=O)c3)c2cc1OCC [Example 257, 4-(3-acetylphenylamino)-6,7-diethoxy-3-quinolinecarbonitrile]
IC50: > 53.3 µM

CCOc1cc2ncc(C#N)c(N(C)c3ccccc3)c2cc1OCC [Example 258, 4-(N-Methylphenylamino)-6,7-diethoxy-3-quinolinecarbonitrile]
IC50: > 28.8 µM

CCOc1cc2ncc(C#N)c(Nc3ccccc3)c2cc1OCC [Example 259, 4-(Phenylamino)-6,7-diethoxy-3-quinolinecarbonitrile]
IC50: > 30 µM

CCOc1cc2ncc(C#N)c(Nc3ccc(F)cc3)c2cc1OCC [Example 260, 4-(4-fluorophenylamino)-6,7-diethoxy-3-quinolinecarbonitrile]
IC50: > 28.5 µM

COc1cc2ncc(C#N)c(Nc3cccc(N)c3)c2cc1OC [Example 264, 4-(3-Aminophenylamino)-6,7-dimethoxy-3-quinolinecarbonitrile]
IC50: > 62.4 µM

COc1cc2ncc(C#N)c(Nc3cccc(NC(C)=O)c3)c2cc1OC [Example 265, 4-(3-Acetamidophenylamino)-6,7-dimethoxy-3-quinolinecarbonitrile]
IC50: > 55.2 µM

CC#CC(=O)Nc1cccc(Nc2c(C#N)cnc3cc(OC)c(OC)cc23)c1 [Example 266, 4-[3-(2-Butynoylamino)phenylamino]1-6,7-dimethoxy-3-quinolinecarbonitrile]
IC50: 51.8 µM

COc1cc2ncc(C#N)c(Nc3cccc(CCl)c3)c2cc1OC [Example 268, 4-[3-(Chloromethyl)phenylamino]-6,7-dimethoxy-3-quinolinecarbonitrile]
IC50: > 56.5 µM

COc1cc2ncc(C#N)c(Nc3cccc(CSC(C)=O)c3)c2cc1OC [Example 269, 4-[3-(Acetylthiomethyl)phenylamino]-6,7-dimethoxy-3-quinolinecarbonitrile]
IC50: > 50.8 µM

COc1cc2ncc(C#N)c(Nc3cccc(CS)c3)c2cc1OC [Example 270]
IC50: < 0.0569 µM

COc1cccc2c(Nc3ccc(Cl)cc3F)c(C#N)cnc12 [Example 275, 4-(4-Chloro-2-fluoro-phenylamino)-8-methoxy-quinoline-3-carbonitrile]
IC50: > 61 µM

COc1cccc2c(Nc3cccc(N(C)C)c3)c(C#N)cnc12 [Example 277, 4-(3-Dimethylamino-phenylamino)-8-methoxy-quinoline-3-carbonitrile]
IC50: > 62.8 µM

COc1cccc2c(Nc3ccc(Br)c(O)c3)c(C#N)cnc12 [Example 278, 4-(4-Bromo-3-hydroxy-phenylamino)-8-methoxy-quinoline-3-carbonitrile]
IC50: > 54 µM

COc1ccc(Nc2c(C#N)cnc3c(OC)cccc23)cc1O [Example 279, 4-(3-Hydroxy-4-methoxy-phenylamino)-8-methoxy-quinoline-3-carbonitrile]
IC50: > 62.2 µM

Source: patent EP0973746B1, “SUBSTITUTED 3-CYANO QUINOLINES” (Wyeth Holdings Corporation, priority 1997, dated 1998)
